# In US5607691A, “Compositions and methods for enhanced drug delivery” (priority 1995, dated 1997):
# Columns and labels:
# [1] = assay type: in vitro ADME; conditions: human
# Text: Table 4 lists the serum half-lives for several model compounds and two representative pharmaceutical agent-chemical modifier complexes using an in vitro assay system described in the Experimental section below. Of course, the serum half-lives will vary in vivo depending upon the age and health condition of the patient. Each complex comprises a model compound or a pharmaceutical agent, a spacer group, and a chemical modifier. Many of the model compounds utilize 4-nitrophenyl(ethanol, propanol, or cyclohexanol) or 4-nitrophenylethylamine as the "model" pharmaceutical agent. A more complete listing of serum half-lives may be found in the Experimental section below.
# General procedure for serum hydrolysis of pharmaceutical agent-modifier complexes
# Stock solutions (6 mM) of the pharmaceutical agent-modifier complexes were prepared in ethanol (by vortexing, sonication or warming at 37° C. if necessary). If required for solubility, a drop of dimethylsulfoxide, dimethylformamide or methanol may be added. (Acetonitrile cannot be used because it deactivates the serum enzymes.)
# HPLC separation methods were established for each study by dilution of the above stock solution (6 μl) in acetonitrile (1 ml) to give a 36 μM solution. Samples (10 μl) were injected onto a Nucleosil 5C8 (250×4 mmID) and guard column (11×4 mm ID) and eluted with a mobile phase of approximately 65% HPLC grade water and 35% of a solution of 0.1% trifluoroacetic acid in acetonitrile, the exact proportions being adjusted in each case to give optimum separation and run times.
# Freshly defrosted human serum (3 ml, Sigma) was warmed at 37° C. for five minutes and then 60 μl of the agent-modifier complex stock solution was added with vortexing. […] The aliquots were added to 800 μl of 2% zinc sulfate solution in a 1.5 ml disposable microcentrifuge tube, vortexed immediately and centrifuged at 14,000 RPM for 3 minutes. The supernatants (10 μl) were then injected onto the HPLC and peak areas were used to determine the % remaining. Serum blanks were prepared similarly by addition of serum to the zinc sulfate solution followed by centrifugation, and time=0 samples were also prepared by adding serum to the zinc sulfate solution followed by addition of the complex and separation by centrifugation. The time=0 samples, as well as the original stock solutions, were also used to study the stability of the complex in the absence of enzyme. Half-lives were calculated using the equation
# by plotting time (x) vs. ln % remaining (y) to obtain the slope (m) and the y intercept (b).
# [2] = saturated sodium carbonate, room temperature, 10 minutes
Substance,Serum Half-life [1],conversion back to piroxicam [2]
"digitoxin-4'""-(6-morpholino-hexanoate)",47 h,–
"digoxin-3""'-(choline carbonate)-3'"",4'""-cyclic carbonate, dibromide salt",22 h,–
"digoxin-3'-(choline carbonate)-3'"",4'""-cyclic carbonate, dibromide salt",22 h,–
"digoxin-4'""(3'"")-(6-trimethylaminohexanoyloxy-methyl ether iodide salt",10 h,–
"piroxicam-N,O-bis(choline chloride) carbonate ester [piroxicam bis(choline chloride) adduct]",–,total conversion back to piroxicam
